Experimental data: patent US6534546B1 (Chugai Seiyaku Kabushiki Kaisha, priority 1994, dated 2003)

How the values were obtained:
N-cNOS (Type 1) = N-cNOS (Type 1) (Rattus norvegicus, UniProt P29476); assay: NOS activity, conversion of L-[3H]arginine to L-[3H]citrulline, crude N-cNOS enzyme from rat cerebral cortex; details: index of selectivity
iNOS (Type 2) = iNOS (Type 2) (Rattus norvegicus, UniProt Q06518); details: index of selectivity

Compound	Ratio of IC50 values E-cNOS/N-cNOS (N-cNOS (Type 1))	Ratio of IC50 values E-cNOS/iNOS (iNOS (Type 2))	Ratio of IC50 values iNOS/N-cNOS (N-cNOS (Type 1))
CCSC(=N)Nc1cccc(C2(N)CCCCC2)c1.Cl.Cl [Example 144, N-(1-(3-(S-ethylisothioureido)phenyl)cyclohexyl)amine dihydrochloride]	24.0	–	–
CCSC(=N)Nc1ccc(CCN)c(OC)c1.Cl.Cl [Example 482, N-(2-(4-(S-ethylisothioureido)-2-methoxyphenyl)ethyl)amine dihydrochloride]	50.2	–	–
CCN=C(N)Nc1ccc(CCN)c(F)c1.Cl.Cl [Example 258, N-(2-(4-(N′-ethylguanidino)-2-fluorophenyl)ethyl)amine dihydrochloride]	14.9	–	–
N=C(NN)NCCC[C@H](N)C(=O)O	1.1	0.1	8.4
CCN=C(N)Nc1cccc(C2(N)CCCCC2)c1.Cl.Cl [Example 234, N-(1-(3-(N′-ethylguanidino)phenyl)cyclohexyl)amine dihydrochloride]	13.1	–	–
CCSC(=N)Nc1ccc(CC(C)(C)N)cc1.Cl.Cl [Example 193, N-(1,1-dimethyl-2-(4-(S-ethylisothioureido)phenyl)ethyl)amine dihydrochloride]	12.1	–	–
CSC(=N)Nc1cccc(C2(N)CCCCC2)c1.Cl.Cl [Example 142, N-(1-(3-(S-methylisothioureido)phenyl)cyclohexyl)amine dihydrochloride]	15.1	–	–
Cl.NC(=N[N+](=O)[O-])Nc1cccc(C2(N)CCCCC2)c1 [Example 169, N-(1-(3-(N′-nitroguanidino)phenyl)cyclohexyl)amine hydrochloride]	3.0	–	–
